From PubChem BioAssay AID602281 (The Scripps Research Institute Molecular Screening Center, 2012)
The entries are a selection whose mix differs from that of the whole data set. The source made the active and inactive calls.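 How the source made its calls: active means inhibition above the mean inhibition across every tested compound plus 3 SD (cut at about 22% in these data); inactive means the rest.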

The chains behind the UniProt entries cited, without tags or fusion partners. Where a name states a change or a piece, a line headed by the entry shows the natural chain unless it says otherwise.
UniProt Q00G26: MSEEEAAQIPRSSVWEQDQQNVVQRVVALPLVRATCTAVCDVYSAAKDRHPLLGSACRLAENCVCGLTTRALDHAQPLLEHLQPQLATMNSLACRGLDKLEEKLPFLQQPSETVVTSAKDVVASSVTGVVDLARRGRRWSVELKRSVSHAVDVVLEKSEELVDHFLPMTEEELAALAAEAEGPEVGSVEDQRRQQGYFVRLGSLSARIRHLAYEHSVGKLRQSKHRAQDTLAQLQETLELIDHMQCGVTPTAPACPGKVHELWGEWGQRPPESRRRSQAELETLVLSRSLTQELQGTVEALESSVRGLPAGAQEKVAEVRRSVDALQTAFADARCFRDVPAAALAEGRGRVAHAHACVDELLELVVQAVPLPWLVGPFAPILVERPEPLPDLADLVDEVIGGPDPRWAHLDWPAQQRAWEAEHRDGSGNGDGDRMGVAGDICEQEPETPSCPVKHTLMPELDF
UniProt Q8WTS1: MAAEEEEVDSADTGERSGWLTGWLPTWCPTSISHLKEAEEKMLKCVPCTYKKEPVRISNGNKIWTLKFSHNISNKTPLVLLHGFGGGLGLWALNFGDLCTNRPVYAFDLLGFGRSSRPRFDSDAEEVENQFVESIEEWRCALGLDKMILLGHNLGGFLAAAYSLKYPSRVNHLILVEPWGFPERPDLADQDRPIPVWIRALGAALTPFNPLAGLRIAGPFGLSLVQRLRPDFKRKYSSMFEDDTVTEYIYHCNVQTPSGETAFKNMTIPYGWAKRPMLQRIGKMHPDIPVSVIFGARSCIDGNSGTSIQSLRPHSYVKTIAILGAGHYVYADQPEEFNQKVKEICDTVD

These compounds were tested against Perilipin-5 (Homo sapiens) + 1-acylglycerol-3-phosphate O-acyltransferase ABHD5 (Homo sapiens) (UniProt Q00G26+Q8WTS1) (assay: ABHD5-PLIN5 interaction inhibitors, primary screen, cell lysate, split luciferase complementation, luminescence (AID 602281;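 further: 0% = DMSO only wells and the 100% control is not disclosed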)). Conditions: Split G. princeps luciferase complementation, 4 h, at 4 µM, active compounds read high.
`CN(CCCl)Cc1cc(Cl)c(NC2=NCCN2)c(Cl)c1` was tested, and the inhibition was inactive: 0.47%.
With `CCOP(=O)(Nc1ccc(C)cn1)OCC` the inhibition was inactive: -1.64%.
For `CCOP(=O)(NC(=NC(C)c1ccccc1)NC(C)c1ccccc1)OCC` (centres undefined), the inhibition was inactive: 4.85%.
For `CCC1=CC2Cc3nc4ccc(Cl)cc4c(N)c3C(C1)C2` (centres undefined), the inhibition was inactive: 2.25%.
In the case of `O=P1(Nc2ccccn2)COc2ccccc2OC1`, the inhibition is reported as inactive: 7.05%.
For `CC(C)(C)C(=O)NC(Sc1ncccn1)C(Cl)(Cl)Cl` (centres undefined), the inhibition was inactive: -1.9%.
With `Clc1n[nH]nc1-c1nn[nH][15n]1` the inhibition was inactive: 0.61%.
In the case of `O=P1(N(CCCl)CCCl)NCCC(C(F)(F)F)O1` (centres undefined), the inhibition is reported as inactive: -0.19%.
In the case of `COc1ccccc1CNC(=O)COC(=O)C(O)(c1ccccc1)c1ccccc1`, the inhibition is reported as inactive: -2.97%.
With `CC1(CBr)Cn2c(nc3ccccc3c2=O)S1` (centres undefined) the inhibition was inactive: -3.57%.
`CN(C(=O)Cc1ccc(Cl)c(Cl)c1)[C@@H]1CCCC[C@H]1N1CCCC1` was tested, and the inhibition was inactive: -1.19%.
In the case of `CC(C)/C=N\N=C(\N)N[N+](=O)[O-]`, the inhibition is reported as inactive: -3.17%.
`Cc1ccc(C(=O)OC2CN3CCC2CC3)cc1` (centres undefined) was tested, and the inhibition was inactive: 0.6%.
In the case of `CC1CCC(C(C)C)C(OP(=O)(Nc2ccccn2)c2ccccc2)C1` (centres undefined), the inhibition is reported as inactive: 1.35%.
With `Cc1nn(-c2ccccc2)c2c1P(=O)(N1CCOCC1)N(C)C(c1ccccc1)=N2` (centres undefined) the inhibition was inactive: 2.2%.
With `CCCC1OP(=O)(Nc2ccccc2)OCC1CC` (centres undefined) the inhibition was inactive: 2.64%.
In the case of `O=C(/C=C/c1ccccc1)OC1CN2CCC1CC2` (centres undefined), the inhibition is reported as inactive: 7.48%.
For `CN(C)C1(CNC(=O)c2ccc(S(C)(=O)=O)cc2)CCCCC1`, the inhibition was inactive: 6.02%.
In the case of `O=P1(Nc2ncccn2)COc2ccccc2OC1`, the inhibition is reported as inactive: 3.25%.
`Cc1ccc(S(=O)(=O)N(CCCN)CCCc2c(C)nc(N)[nH]c2=O)cc1` was tested, and the inhibition was inactive: -1.95%.
`NS(=O)(=O)c1cccc(NC(=O)COC(=O)C(O)(c2ccccc2)c2ccccc2)c1` was tested, and the inhibition was inactive: 3.3%.
For `O=P1(Nc2ccc(Br)cn2)COc2ccccc2OC1`, the inhibition was inactive: -1.4%.
`O=[As](O)(c1cccs1)c1cccs1` was tested, and the inhibition was inactive: 4.4%.
`Nc1cccc([As](=O)(O)c2ccccc2)c1` was tested, and the inhibition was inactive: -2.89%.
In the case of `CS(=O)(=O)c1cc([N+](=O)[O-])c2no[n+]([O-])c2c1`, the inhibition is reported as inactive: -1.91%.
`O=P(Nc1nccs1)(c1ccccc1)c1nc2ccccc2s1` (centres undefined) was tested, and the inhibition was active: 40.6%.
`O=P(Nc1nccs1)(Oc1ccccc1)Oc1ccccc1` was tested, and the inhibition was inactive: -1.3%.
In the case of `CCOP1(=S)c2c(C)nn(CCC#N)c2N=C(c2ccccc2F)N1C` (centres undefined), the inhibition is reported as inactive: -6.47%.
In the case of `O=C(O)COc1ccc([As](=O)(O)O)cc1[N+](=O)[O-]`, the inhibition is reported as inactive: 6.62%.
For `Nc1ccccc1[As](=O)(O)c1ccccc1`, the inhibition was inactive: 2.42%.
In the case of `NC(=O)Nc1ccc([As](=O)(O)O)cc1`, the inhibition is reported as inactive: -1.98%.
With `CN(C(=O)Cc1ccc(Cl)c(Cl)c1)[C@H]1CC[C@@]2(CCCO2)C[C@@H]1N1CCCC1` the inhibition was inactive: -1.84%.
`CN(C)C(=O)c1cc([N+](=O)[O-])cc2c1-c1c(cc([N+](=O)[O-])cc1[N+](=O)[O-])C2=O` was tested, and the inhibition was inactive: 3.46%.
`O=[N+]([O-])c1ccc2c(c1)nnn2O` was tested, and the inhibition was inactive: 0.91%.
For `CCOP1(=S)c2c(C)nn(CCC#N)c2N=C(c2ccc(F)cc2)N1C` (centres undefined), the inhibition was inactive: 6.58%.
With `CN(C(=O)Cc1ccccc1)[C@@H]1CC[C@]2(CCCO2)C[C@H]1N1CCCC1` the inhibition was inactive: 4.55%.
In the case of `N#CCCN(C(=O)COC(=O)C(O)(c1ccccc1)c1ccccc1)c1ccc(F)cc1`, the inhibition is reported as inactive: -10.3%.
For `CS(=O)(=O)c1ccc(Cl)c(NC(=O)COC(=O)C(O)(c2ccccc2)c2ccccc2)c1`, the inhibition was inactive: -1.18%.
In the case of `COc1cc(C(=O)NCC2(N3CCOCC3)CCCCC2)cc(Cl)c1OC(C)C`, the inhibition is reported as inactive: 1.15%.
For `O=[As](O)(O)c1cccnc1`, the inhibition was inactive: 7.3%.
For `O=C(OC1CN2CCC1CC2)c1ccc(Cl)cc1` (centres undefined), the inhibition was inactive: 3.57%.
In the case of `O=[As](O)(c1cccc(O)c1)c1cccc(O)c1`, the inhibition is reported as inactive: 3.07%.
In the case of `Cc1cccc(OCC(=O)OC2CN3CCC2CC3)c1` (centres undefined), the inhibition is reported as inactive: 3.33%.
With `CCCOP(=S)(Nc1nc(N)cc(=O)[nH]1)OCCC` the inhibition was inactive: -15.1%.
With `Cc1ccc(NCCc2c([N+](=O)[O-])cc([N+](=O)[O-])cc2[N+](=O)[O-])cc1` the inhibition was inactive: 8.33%.
With `Nc1cccc2c([As](=O)(O)O)cccc12` the inhibition was inactive: -2.3%.
`CCOP(=O)(Nc1cccc2ccccc12)OCC` was tested, and the inhibition was inactive: -4.03%.
`COc1cc(C2NCCC3(OCCO3)C2(C)C)cc(OC)c1OC` (centres undefined) was tested, and the inhibition was inactive: 6.49%.
For `Cc1cc(=O)[nH]c(N[N+](=O)[O-])n1`, the inhibition was inactive: 3.64%.
`O=C(OC1CN2CCC1CC2)C12CC3CC(CC(C3)C1)C2` (centres undefined) was tested, and the inhibition was inactive: -0.44%.
For `Cc1c2c(nc3ccccc13)SC(C(Cl)Cl)C2` (centres undefined), the inhibition was inactive: -4.38%.
For `COc1cc(I)ccc1[As](=O)(O)O`, the inhibition was inactive: 1.54%.
With `COc1ccc2nc(NP(=O)(c3ccccc3)c3ccccc3)sc2c1` the inhibition was inactive: -0.47%.
For `O=P1(N(CCCl)CCCl)OCCCN1CCCl` (centres undefined), the inhibition was inactive: 2.44%.
For `O=P1(N(CCCl)CCCl)Nc2ccccc2N1`, the inhibition was inactive: -0.01%.
With `COc1ccc(N/C(=N/P(=O)(N2CCOCC2)N2CCOCC2)N2CCOCC2)cc1` the inhibition was inactive: -2.39%.
With `O=[N+]([O-])c1cc(Oc2ccc([N+](=O)[O-])cc2C(F)(F)F)cc([N+](=O)[O-])c1` the inhibition was inactive: 3.6%.
With `COc1cc(C(=O)NCC2(N3CCOCC3)CCCCC2)ccc1OCC(C)C` the inhibition was inactive: 1.34%.
In the case of `O=[N+]([O-])c1ccc(-c2cc([N+](=O)[O-])c(O)c([N+](=O)[O-])c2)cc1`, the inhibition is reported as inactive: -2.98%.
With `C[As](=O)(O)c1cccc(C(=O)O)c1` the inhibition was inactive: -1.41%.
With `O=[As](O)(c1ccc(O)cc1)c1ccccc1O` the inhibition was inactive: 2.25%.
`Cc1ccc2nc3c(c(C)c2c1)CC(C(Cl)Cl)S3` (centres undefined) was tested, and the inhibition was inactive: -4.17%.
With `Cc1ccc(OP(=O)(Nc2ccc([N+](=O)[O-])cn2)Oc2ccc(C)cc2)cc1` the inhibition was inactive: -0.45%.
With `[N-]=[N+]=NC1CCCCC1NC(=O)c1cc([N+](=O)[O-])cc([N+](=O)[O-])c1` (centres undefined) the inhibition was inactive: -1.25%.
`CC(C)c1ccc(OP(=O)(Nc2ccccn2)Oc2ccccc2F)cc1` (centres undefined) was tested, and the inhibition was inactive: 3.78%.
For `COC(=O)C1(C)COP(=O)(N2CCCCCC2)OC1` (centres undefined), the inhibition was inactive: 8.15%.
With `ClCCSc1nnc(-c2cccnc2)o1` the inhibition was inactive: -0.2%.
`O=[N+]([O-])c1cc([N+](=O)[O-])c(-c2ccn[nH]2)s1` was tested, and the inhibition was inactive: 2.96%.
With `CCN(CC)C(=S)SC(NC=O)C(Cl)(Cl)Cl` (centres undefined) the inhibition was inactive: 6.52%.
`O=C(OC1CN2CCC1CC2)c1cccc2[nH]cnc12` (centres undefined) was tested, and the inhibition was inactive: -0.44%.
With `CC(C)NC(=O)NP(=O)(Oc1ccccc1)Oc1ccccc1` the inhibition was inactive: -2.54%.
For `CC1CCNP(=O)(N(CCCl)CCCl)O1` (centres undefined), the inhibition was inactive: -1.71%.
With `O=C(O)C(O)c1ccc(N(CCCl)CCCl)cc1` (centres undefined) the inhibition was inactive: 4.18%.
With `CCOC(=O)Nc1ccc([As](=O)(O)O)c(O)c1` the inhibition was inactive: 1.6%.
In the case of `Cc1cc(SC(NC(=O)c2ccccc2)C(Cl)(Cl)Cl)nc(C(C)C)n1` (centres undefined), the inhibition is reported as inactive: 9.92%.
In the case of `CCCCOc1ccc(C(=O)NCC2(N3CCCCC3)CCCCC2)cc1OC`, the inhibition is reported as inactive: 4.61%.
For `COP(=O)(OC)N1CC1c1ccccc1` (centres undefined), the inhibition was inactive: -6.34%.
`CCOC(=O)Nc1cccc([As](=O)(O)O)c1` was tested, and the inhibition was inactive: 7.43%.
With `O=[N+]([O-])c1ccc(Nc2ccc(Oc3ccc([N+](=O)[O-])cc3[N+](=O)[O-])cc2)c([N+](=O)[O-])c1` the inhibition was inactive: 1.33%.
With `Cc1cc(SC(NC=O)C(Cl)(Cl)Cl)ncn1` (centres undefined) the inhibition was inactive: 0.48%.
With `O=P(Nc1ccccn1)(c1cccc2ccccc12)c1cccc2ccccc12` the inhibition was inactive: -4.08%.
`COC(=O)C1(C)COP(=O)(N2CCCC2)OC1` (centres undefined) was tested, and the inhibition was inactive: -9.3%.
For `COP1(=S)c2c(C)nn(CCC#N)c2N=C(c2ccc(F)cc2)N1C` (centres undefined), the inhibition was inactive: 1.67%.
With `O=C(Nc1ccncc1[N+](=O)[O-])c1ccc([N+](=O)[O-])cc1[N+](=O)[O-]` the inhibition was inactive: -3.31%.
`O=C(COc1ccccc1)OC1CN2CCC1CC2` (centres undefined) was tested, and the inhibition was inactive: 0.7%.
In the case of `O=C(O)C(=O)c1ccc(N(CCCl)CCCl)cc1`, the inhibition is reported as inactive: -1.7%.
For `CCOC(=O)c1ccc(NC(=O)C(C)(CCl)SC)cc1` (centres undefined), the inhibition was inactive: -6.23%.
For `CSc1ccc(Nc2c([N+](=O)[O-])cc([N+](=O)[O-])cc2[N+](=O)[O-])cc1`, the inhibition was inactive: 2.79%.
With `O=C(OC1CN2CCC1CC2)c1cccc([N+](=O)[O-])c1` (centres undefined) the inhibition was inactive: 0.4%.
For `CCC(C)N(CC(C)C)C(=S)SC(NC(C)=O)C(Cl)(Cl)Cl` (centres undefined), the inhibition was inactive: -6.13%.
With `COc1ccc(C2=NCC(CBr)S2)cc1` (centres undefined) the inhibition was inactive: -13.6%.
`CC(=O)N1C2C3N(C(C)=O)C1C1N(C(C)=O)C(C(N1C(C)=O)N3C(C)=O)N2C(C)=O` was tested, and the inhibition was inactive: -3.03%.
`O=[N+]([O-])c1cccc2n[nH]nc12` was tested, and the inhibition was inactive: -1.72%.
In the case of `O=[N+]([O-])c1cc([N+](=O)[O-])c(CCNc2ccccc2)c([N+](=O)[O-])c1`, the inhibition is reported as inactive: 2%.
In the case of `CCc1nc2c(n1)c1c(non1O)c1c2no[n+]1[O-]`, the inhibition is reported as inactive: -5.39%.
For `Cc1ccc(NP(=O)(Oc2ccccc2)Oc2ccccc2)nc1`, the inhibition was inactive: -5.55%.
In the case of `C[N+]1=C2C=CC=CC=C2SC12C([N+](=O)[O-])=CC([N+](=O)[O-])=C[C-]2[N+](=O)[O-]` (centres undefined), the inhibition is reported as inactive: -15.4%.
For `Nc1ccc([As](=O)(O)c2ccc(N)cc2)cc1`, the inhibition was inactive: 11.8%.
With `CCN(/C(=N/P(=O)(N1CCOCC1)N1CCOCC1)N1CCOCC1)c1ccc(OC)cc1` the inhibition was inactive: -3.49%.
